# Screens (PubChem BioAssay)
# EPAC1 antag: antagonists of human EPAC1 | O95398 | EPAC1 GEF assay, Rap1b-BODIPY-GDP exchange fluorescence | Potency, µM (top dose mostly 115 µM), for inactives: at the highest dose activity change, negative = inhibition, hits mostly inhibitors | 360,000 tested, 0.14% active;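 also: plate controls were vehicle for no effect and positive control for full effect; nearly all actives have a fitted effect of over 50% in size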
# Rango complex inh: prevents formation of the Rango-importin beta complex; Q14974; Rango CFP/YFP FRET sensor + importin beta, 45 min; Potency, µM (top dose mostly 92.2 µM), for the others: at the highest dose inhibition of complex formation; 340,000 tested, 0.031% active; AID 540263; calls by dose curve;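 also: 0% = DMSO wells and 100% = buffer wells lacking importin beta; nearly all actives have a fitted effect of over 15% in size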
#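 Inhibition scored from the CFP 486 nm/YFP 530 nm FRET ratio 45 min after adding 0.125 microM importin beta to 50 nM Rango biosensor preincubated 5 min with compound (room temperature, PBS with DTT, Tween-20, BSA). No-importin wells as positive control.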
# Rango dissoc inh: prevents RanGTP from dissociating the Rango-importin beta complex; 340,000 tested, 0.071% active; Potency, µM (top dose mostly 46.1 µM), inactives show at the top dose activity change, negative = inhibition; Biochemical FRET Rango-importin beta, RanGTP-induced dissociation; calls by dose curve; also: % of control where 0% means no effect; nearly all actives have a fitted effect of over 45% in size
#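 Rango/importin beta premix (0.1/0.25 uM final), PBS + 1 mM DTT + 0.02% Tween-20 + 0.1% BSA; cpd 5 min RT; FRET pre-read; + RanGTP-RCC1 (0.6 uM Ran, 2 mM GTP, 0.2 uM RCC1); 45 min RT; FRET post-read, ex 430, em 486/530 nm.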
# EPAC1 agonist: activates human EPAC1 exchange factor; O95398; EPAC1 agonist qHTS, biochemical assay; response scale: 100% = response to 6.5 mM cAMP; Potency, µM (highest dose often 154 µM), without a hit: at the highest dose activation, most hits filed as activators; 360,000 tested, 0.073% active; also: nearly all actives have a fitted effect of over 60% in size
#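 Nucleotide exchange assay: 100 nM EPAC1 with 250 nM Rap1B loaded with BODIPY-GDP and 50 uM GDP, room temperature. Fluorescence (480/540 nm) read every 5 min for 30 min; signal change normalized to 6.5 mM cAMP as full agonist.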
# EPAC2 agonist: activates human EPAC2 exchange factor | Q8WZA2 | AID 720711 | Potency, µM (series often up to 154 µM), inactives show at the highest dose activation, actives largely listed as activators | 360,000 tested, 0.079% active | EPAC2 activation, biochemical qHTS; response scale: 100% = 6.5 mM cAMP response; also: nearly all actives have a fitted effect of over 50% in size
#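 Fluorescence exchange assay: 100 nM EPAC2 with 250 nM RAP1B-BODIPY-GDP and 50 uM GDP; compounds tested as a concentration-titration series (qHTS). Loss of Rap1-bound BODIPY-GDP fluorescence read at 480/540 nm; data normalized to 6.5 mM cAMP.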
# EPAC2 antagonist: blocks human EPAC2 exchange factor; Q8WZA2; EPAC2 GEF exchange of Rap1B-BODIPY-GDP, fluorescence; Potency, µM (doses to about 114 µM), without a hit: top-dose activity, negative = inhibition, actives largely listed as inhibitors; 360,000 tested, 0.18% active; also: % is scaled to controls: 0 for no effect and ±100 for the full control effect; nearly all actives have a fitted effect of over 45% in size
# Active calls of the source: *; i = inactive; ? = inconclusive; . = no result. Hits are enriched below; roughly 0.43% of the tested compounds scored in any of these assays. Unless noted, calls follow the shape of the dose curve; as a rule, active = well fitted curve in the direction sought with a large enough effect; inconclusive = small, poorly fitted or top-dose-only effect, or another doubt; inactive = no such curve, though single readings can be large; an effect the other way counts as inactive or inconclusive. Potency is read from the fitted curve at half-maximal effect.
1	Cc1csc2nc(NC(=O)c3ccccc3)sc(=O)c12
2	CN(C)S(=O)(=O)c1cccc(-c2nn(-c3ccccc3)cc2/C=C(\C#N)c2nc3ccccc3[nH]2)c1
3	CN(C)S(=O)(=O)c1cccc(-c2nn(-c3ccccc3)cc2/C=C2\SC(=S)NC2=O)c1
4	CCc1nnc(NS(=O)(=O)c2ccc(NCc3cc(Cl)ccc3O)cc2)s1
5	CCc1nnc(NS(=O)(=O)c2ccc(NCc3cc(Cl)cc(Cl)c3O)cc2)s1
6	CC1(C(=O)Nc2ccc3c(c2)OCCO3)CN(S(C)(=O)=O)CC(=O)N1CCCN1CCOCC1 (stereo not given)

assay / compound | 1 | 2 | 3 | 4 | 5 | 6
EPAC2 agonist | 2.8% | 5.4% | -4.9% | -4.2% | 1.7% | 9.3%
Rango dissoc inh | 5.8µM* | ? | -4.4% | -5.7% | -1.8% | .
EPAC1 agonist | -0.2% | 5.4% | 5.5% | -8.0% | -26.1% | 6.7%
EPAC1 antag | 1.7% | 0.7% | 70.8µM* | ? | -22.0% | -4.4%
Rango complex inh | ? | ? | 0.1% | -1.4% | -5.8% | .
EPAC2 antagonist | 4.1% | 1.4% | -1.8% | ? | 17.8µM* | -5.9%

7	Nc1nc(Br)c2c(F)cccc2c1-c1ccc(Cl)cc1
8	Nc1nc(Br)c2ccccc2c1-c1ccccc1
9	COCCn1c2nc(=O)n(-c3ccccc3)c(=O)c-2nc2ccccc21
10	CCOC(=O)COc1ccc(Br)cc1/C=C/c1[nH]c(=O)[nH]c(=O)c1[N+](=O)[O-]
11	Cc1nn(C)c(C)c1N1C(=O)c2cccc3c(Br)ccc(c23)C1=O
12	Cc1nn(C)c(C)c1N1C(=O)c2cccc3c(N)ccc(c23)C1=O

assay / compound | 7 | 8 | 9 | 10 | 11 | 12
EPAC2 agonist | 12.2% | 26.2% | 89.1µM* | 1.8% | -1.2% | 100µM*
Rango dissoc inh | 4.2% | 13µM* | . | -0.9% | -20.7% | ?
EPAC1 agonist | 10.3% | 8.6% | 89.1µM* | -4.6% | -3.6% | 100µM*
EPAC1 antag | -1.7% | 1.2% | 212.6% | 31.6µM* | 2.2% | 93.9%
Rango complex inh | 0.0% | ? | . | 3.1% | -1.5% | ?
EPAC2 antagonist | -19.0% | -14.7% | i | -4.6% | ? | 373.7%

13	Cc1ccc(N2C(=O)c3cccc4c(N)ccc(c34)C2=O)c2cccnc12
14	CCN1C(=O)c2cccc3c(N)ccc(c23)C1=O
15	CCN(CC)c1ncnc2c1ncn2[C@H]1CN(Cc2cccnc2)C[C@@H](CO)O1
16	Cc1ccccc1CN1C(=O)[C@@H]2Cc3c([nH]c4ccccc34)C(C)(C)N2C1=O
17	CC1(C)c2[nH]c3ccccc3c2C[C@@H]2C(=O)N(Cc3ccccc3Cl)C(=O)N21
18	OC[C@@H]1CN(Cc2ccc3c(c2)OCO3)C[C@H](n2cnc3c(NC4CC4)ncnc32)O1

assay / compound | 13 | 14 | 15 | 16 | 17 | 18
EPAC2 agonist | 100µM* | 63.1µM* | 14.1% | 14.6% | 1.0% | -1.5%
Rango dissoc inh | ? | ? | . | -9.5% | 11.6µM* | .
EPAC1 agonist | ? | 100µM* | -1.3% | -17.9% | -11.6% | -0.6%
EPAC1 antag | 112.8% | 67.7% | -6.4% | -10.4% | -24.2% | -24.9%
Rango complex inh | ? | ? | . | -2.8% | ? | .
EPAC2 antagonist | 278.8% | 130.1% | 15.6% | -6.8% | 1.1% | -1.3%

# Quoted at random: 4 entries already listed, in no set order.
10	CCOC(=O)COc1ccc(Br)cc1/C=C/c1[nH]c(=O)[nH]c(=O)c1[N+](=O)[O-]
15	CCN(CC)c1ncnc2c1ncn2[C@H]1CN(Cc2cccnc2)C[C@@H](CO)O1
2	CN(C)S(=O)(=O)c1cccc(-c2nn(-c3ccccc3)cc2/C=C(\C#N)c2nc3ccccc3[nH]2)c1
4	CCc1nnc(NS(=O)(=O)c2ccc(NCc3cc(Cl)ccc3O)cc2)s1

assay / compound | 10 | 15 | 2 | 4
EPAC2 agonist | 1.8% | 14.1% | 5.4% | -4.2%
Rango dissoc inh | -0.9% | . | ? | -5.7%
EPAC1 agonist | -4.6% | -1.3% | 5.4% | -8.0%
EPAC1 antag | 31.6µM* | -6.4% | 0.7% | ?
Rango complex inh | 3.1% | . | ? | -1.4%
EPAC2 antagonist | -4.6% | 15.6% | 1.4% | ?

# Following part.
19	C#CCOCCOCCOCCNc1nc(N2CCN(C(=O)[C@H](CCCN=C(N)N)n3cc(C(N)[C@@H](C)CC)nn3)CC2)nc(N2CCN(C(=O)[C@H](CCCCN)n3cc([C@@H](N)[C@H](C)CC)nn3)CC2)n1 (stereo not given in full)
20	C#CCOCCOCCOCCNc1nc(N2CCN(C(=O)CCCCCCCCCCNC(=O)[C@H]([C@@H](C)CC)n3cc(CCCCN=C(N)N)nn3)CC2)nc(N2CCN(C(=O)CCCCCCCCCCNC(=O)[C@H](CCCCN)n3cc(C)nn3)CC2)n1
21	C#CCOCCOCCOCCNc1nc(N2CCN(C(=O)CCCCCCCCCCNC(=O)[C@H]([C@@H](C)CC)n3cc(CCCCCN)nn3)CC2)nc(N2CCN(C(=O)CCCCCCCCCCNC(=O)[C@H](CCCCN)n3cc(CCCC(=O)O)nn3)CC2)n1
22	C#CCOCCOCCOCCNc1nc(N2CCN(C(=O)CCCCCCCCCCNC(=O)[C@H](CO)n3cc(CCCSC)nn3)CC2)nc(N2CCN(C(=O)CCCCCCCCCCNC(=O)[C@H](CCCN=C(N)N)n3cc(C[C@@H](C)CC)nn3)CC2)n1
23	Cc1ccc2nc(C3CCCCC3)c(Cc3ccsc3)n2c1
24	O=C1Nc2ccccc2N(C(=O)c2ccc3ccccc3c2)C1c1nc2ccccc2[nH]1 (stereo not given)

assay / compound | 19 | 20 | 21 | 22 | 23 | 24
EPAC2 agonist | 5.2% | 28.3% | -2.7% | -19.0% | 17.0% | 7.9%
Rango dissoc inh | 13.9% | 0.2% | -3.9% | -22.0% | . | .
EPAC1 agonist | 7.1% | 0.3% | 4.7% | -30.5% | -2.4% | -7.4%
EPAC1 antag | ? | ? | 1.4% | 56.2µM* | -0.3% | ?
Rango complex inh | 58µM* | 65.1µM* | 5.1% | 6.4% | . | .
EPAC2 antagonist | -5.1% | -26.4% | 25.6% | ? | -24.1% | -3.0%

25	COc1ccc(C2C(C#N)=C(N)OC3=C2C(=O)CC(C)(C)C3)c([N+](=O)[O-])c1OC (stereo not given)
26	COc1cc(C2C(C#N)=C(N)OC3=C2C(=O)CC(C)(C)C3)c([N+](=O)[O-])cc1OC (stereo not given)
27	CCOc1ccc2oc(C(=O)N(C)CC(=O)Nc3ccc(OCC)c(OCC)c3)c(C)c2c1
28	CO[C@H]1CN(C)C(=O)c2ccc(NC(=O)c3ccc4c(c3)OCO4)cc2OC[C@H](C)N(CC2CC2)C[C@@H]1C
29	Cc1ccc(S(=O)(=O)/N=C2/NC(=O)/C(=C\c3ccccc3)S2)cc1
30	Cc1ccc(/C=C2\S/C(=N/S(=O)(=O)c3cccs3)NC2=O)cc1

assay / compound | 25 | 26 | 27 | 28 | 29 | 30
EPAC2 agonist | 2.9% | 5.0% | -0.6% | 5.1% | -17.6% | -8.4%
Rango dissoc inh | 23.1µM* | ? | -14.9% | . | 18.4% | -6.2%
EPAC1 agonist | 1.1% | 2.5% | 56.2µM* | -4.0% | -7.5% | -9.4%
EPAC1 antag | -1.3% | 7.9% | -11.1% | -9.5% | ? | 39.8µM*
Rango complex inh | ? | ? | 0.1% | . | -2.5% | 5.9%
EPAC2 antagonist | -7.1% | -2.0% | -12.2% | -8.2% | ? | ?

31	Cc1ccc(O)c(NC(=O)CSc2n[nH]c(-c3ccccc3)n2)c1
32	O=C(CSc1n[nH]c(-c2ccccc2)n1)c1ccc(O)c(O)c1
33	Cc1cc(SCC(=O)c2ccc(O)c(O)c2)nc2ccccc12
34	COC(=O)C[C@H]1CC[C@H](NC(=O)c2ccc(F)cc2)[C@@H](CO)O1
35	Fc1ccc(C(Nc2ccccn2)c2c[nH]c3ccccc23)cc1 (stereo not given)
36	C/C(C/C(C)=C1/SC(=S)NC1=O)=C1\SC(=S)NC1=O
37	CCCCCC/C(C)=C1/SC(=S)NC1=O

assay / compound | 31 | 32 | 33 | 34 | 35 | 36 | 37
EPAC2 agonist | 3.7% | 10.1% | 19.2% | 0.2% | 2.5% | 13.6% | 4.5%
Rango dissoc inh | 2.3% | -11.5% | -14.8% | . | 0.0% | -9.6% | -5.6%
EPAC1 agonist | 9.9% | -1.5% | 12.5% | -6.6% | 9.7% | -2.8% | -3.0%
EPAC1 antag | 11.9% | 35.5µM* | 28.2µM* | -8.5% | -15.5% | 20µM* | -29.3%
Rango complex inh | 2.2% | 6.3% | -3.2% | . | -0.5% | -0.3% | ?
EPAC2 antagonist | -1.0% | 0.8% | -29.6% | 0.9% | 44.7µM* | ? | -22.1%
